Data from US7741340B2 (dated 2010).

System: Fibroblasts established from Gaucher patients with N370S/N370S mutation
Assay: Chaperone rescue of residual GCase activity in Gaucher fibroblasts
Format: cell-based, human
Conditions: N370S homozygous fibroblasts, 4 days

Question: Which “optimal concentration for chaperone activity” value does the source give for `OC[C@H]1CNC[C@@H](O)[C@@H]1O` [hydroxypiperidine, isofagomine] here?
Answer: Its value is 30 µM.
